Test results taken from PMC3191772.
“And” between values parts separate entries of the source, which are not always exact repeats. Identical values can stand only once.

Molecular target: Hsp27 labeled with acrylodan (UniProt P04792)
Test: other fluorescence titration; 1 μM AC-Hsp27 held constant, F-actin varied; separate samples incubated overnight at 37°C in F-buffer; acrylodan fluorescence at 485 nm (excitation 395 nm); apparent constant, quadratic binding fit with the actin/Hsp27 stoichiometry fixed at 1.0 or varied

Kd: 5.3 µM and 3 to 5.6 µM
Substance: F-actin (actin filament polymerized from rabbit skeletal muscle actin) (from UniProt P68135 1-377) (natural protein; other documents disagree on this pair)
